Test results from patent publication US7390813B1, “Pyridylpiperazines and aminonicotinamides and their use as therapeutic agents” (Xenon Pharmaceuticals Inc., priority 2001, dated 2008).

By UniProt entry, the sequences of proteins in these tests, tags left out.
UniProt P13516, whole entry: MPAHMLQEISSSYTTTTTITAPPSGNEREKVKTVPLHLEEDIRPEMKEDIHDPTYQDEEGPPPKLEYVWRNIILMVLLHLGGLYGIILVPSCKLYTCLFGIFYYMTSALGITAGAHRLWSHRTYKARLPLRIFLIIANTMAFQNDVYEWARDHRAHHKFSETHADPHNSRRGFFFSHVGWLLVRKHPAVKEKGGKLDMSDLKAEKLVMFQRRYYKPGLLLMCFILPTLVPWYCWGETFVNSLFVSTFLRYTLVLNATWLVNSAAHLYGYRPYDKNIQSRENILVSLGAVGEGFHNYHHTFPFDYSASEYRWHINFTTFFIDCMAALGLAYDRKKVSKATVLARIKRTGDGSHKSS

Biological target: stearoyl-CoA desaturase (SCD) (Mus musculus, UniProt P13516)
Assay: SCD mouse liver microsome assay (tritiated stearoyl-CoA desaturation)
Details: for % Remaining SCD activity compared to DMSO control, average: mouse liver microsomes 100 μg, 15 min RT preincubation, 15 min RT desaturation

% Remaining SCD activity compared to DMSO control, average (0.1 uM test compound): 22.81% | % Remaining SCD activity compared to DMSO control, average (1 uM test compound): 2.50% | % Remaining SCD activity compared to DMSO control, average (10 uM test compound): 0.69% | % Activity 0.1 μM (Table 5, % remaining SCD activity at 0.1 μM, mouse microsome assay): 23% | % Activity 1 μM (Table 5, % remaining SCD activity at 1 μM, mouse microsome assay): 2.5% | % Activity 10 μM (Table 5, % remaining SCD activity at 10 μM, mouse microsome assay): 0.7% | IC50 (read-out: IC50 value, stated in summary text): 48 nM
SMILES: O=C(NCCc1ccccc1)c1ccc(N2CCN(C(=O)c3ccccc3C(F)(F)F)CC2)nc1
